Assay [1] deals with T1, type 1 human 5α-reductase (HRED1) (Homo sapiens, UniProt P18405).
T1 sequence (P18405 1-259): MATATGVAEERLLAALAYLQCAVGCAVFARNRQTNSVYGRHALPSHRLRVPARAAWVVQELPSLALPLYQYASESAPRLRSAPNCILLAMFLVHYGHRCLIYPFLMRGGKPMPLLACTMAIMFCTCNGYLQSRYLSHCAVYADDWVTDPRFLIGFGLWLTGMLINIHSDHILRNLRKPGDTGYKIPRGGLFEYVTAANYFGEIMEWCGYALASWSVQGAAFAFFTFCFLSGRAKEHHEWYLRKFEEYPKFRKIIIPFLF
As to the kind of experiment: Whole cell assay of 5α-reductase, type 1 isoenzyme.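 Also: intact rat 1A cells engineered to express the human type 1 5α-reductase isozyme serve as the enzyme source.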 Format: cell-based. The settings on record: Table 7. Also on record: expressed in transfected cells; host or cells: rat 1A cells infected with pMV7 retrovirus.

For assay [2], the target named is T1, type 1 human 5α-reductase (HRED1). Briefly: Cell free assay of 5α-reductase, microsomes of rat 1A cells expressing type 1 isoenzyme (HRED1).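 Also: microsomes from rat 1A cells expressing human type 1 5α-reductase, conversion of radiolabeled testosterone to dihydrotestosterone quantified by thin layer chromatography with radioanalytic scanning.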 Format: biochemical. Also on record: expressed in transfected cells; host or cells: rat 1A cells infected with pMV7 retrovirus; microsomes.
Assay [3] has as its target T2, type 2 human 5α-reductase (HRED2) (Homo sapiens, UniProt P31213).
T2 sequence (P31213 1-254): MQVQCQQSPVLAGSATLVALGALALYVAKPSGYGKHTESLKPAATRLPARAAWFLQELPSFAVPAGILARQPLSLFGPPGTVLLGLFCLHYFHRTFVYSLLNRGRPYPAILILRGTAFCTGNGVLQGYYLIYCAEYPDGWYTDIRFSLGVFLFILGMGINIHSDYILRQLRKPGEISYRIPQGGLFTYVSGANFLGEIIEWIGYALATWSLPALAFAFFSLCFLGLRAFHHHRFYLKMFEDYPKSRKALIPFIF
As to the kind of experiment: Whole cell assay of 5α-reductase, type 2 isoenzyme.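 Also: intact rat 1A cells genetically modified to carry human type 2 5α-reductase served as the enzyme source.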 Format: cell-based. The settings on record: Table 7, read-out: HCRED2 IC50. Further details: expressed in transfected cells; host or cells: rat 1A cells infected with pMV7 retrovirus.

Assay [4] has as its target T2, type 2 human 5α-reductase (HRED2). Briefly: Cell free assay of 5α-reductase, microsomes of rat 1A cells expressing type 2 isoenzyme (HRED2).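 Also: labeled testosterone and its product dihydrotestosterone measured in microsomal reaction extracts via thin layer chromatography plus radioanalytic scanning.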 Further details: expressed in transfected cells; host or cells: rat 1A cells infected with pMV7 retrovirus; microsomes. Format: biochemical.

With `O=c1c(-c2ccc(O)cc2)coc2cc(O)cc(O)c12` [Genistein], the inhibition at 100 µM in assay [1] (100 μM, whole cell assay) amounted to 22%. Moreover, the half-inhibitory concentration (IC50) in assay [1] (HCRED1 IC50, whole cell assay) is more than 100 µM; in assay [2] it was more than 100 µM; in assay [3], 20 µM; in assay [4], 23 µM.

The values above are taken from US20030144346A1, “Methods and compositions for regulation of 5-alpha reductase activity” (priority 1997, published 2003).
